Earlier results, collected in article PMC6222802 (Molecules : A Journal of Synthetic Chemistry and Natural …, 2018).

What was measured:
Details in all cases: 30 µg/mL; ref Li et al.; cited from earlier work
HepG2 cells = system: HepG2 cells
HCT1116 cells = system: HCT1116 cells
A549 cells = system: A549 cells
MCF-7 cells = system: MCF-7 cells

COc1ccc(OP(=O)(Cl)N(CCCl)CCCl)cc1 (stereo not shown)
inhibition rate, HepG2 (HepG2 cells): 88%
inhibition rate, HCT1116 (HCT1116 cells): 68%
inhibition rate, A549 (A549 cells): 40%
inhibition rate, MCF-7 (MCF-7 cells): 73%
